Data: patent publication US8324238B2

Test: Solubility of various salts in distilled water, converted into free base (Example 4B)
Conditions: room temperature, converted into the corresponding solubilities of free base

Phthalate
Solubility: 480 µg/mL
